Target: IRAK4 (Homo sapiens, UniProt Q9NWZ3)
Experiment: OCI-LY10 IRAK MSD assay DC50 (IRAK4 degradation)
Conditions: read-out: OCI-LY10 IRAK4 DC50, OCI-Ly10 cells, incubated for 4 hr, concentration of compound required to degrade 50% of protein
Method: A MSD assay is run to determine the concentration of compound required to degrade 50% of protein (DC50).
• Compounds were reconstituted to 10 mM in stock solutions. The stock solutions were diluted to 5 mM and 45 μL of each dilution was transferred to a 384 pp-plate. […]
• The MSD coated plate was washed 3× (150 μL/well) with 1×TBST (CST #9997S). • The MSD plate was then blocked with 150 μL of blocking buffer [3% Blocker A (MSD, R93BA-4) in TBST]/well and shaken for 1 hr at RT and 600 rpm. • The MSD plate was washed 3× (150 μL/well) with 1×TBST. […] The plate was then shaken for 1 hr at RT and 600 rpm. • The MSD plate was then washed 3× (150 μL/well) with 1×TBST. • 1×MSD reading buffer was then added (150 μL/well) and the plate […].
(MSD, R92TC-2) • The MSD instrument was then read.
The remaining activity was calculated following the formula below:
• The DC50 was calculated by fitting the Curve using Xlfit (v5.3.1.3), equation 201: […]

The chains behind the UniProt entries cited, without tags or fusion partners.
UniProt Q9NWZ3, whole entry: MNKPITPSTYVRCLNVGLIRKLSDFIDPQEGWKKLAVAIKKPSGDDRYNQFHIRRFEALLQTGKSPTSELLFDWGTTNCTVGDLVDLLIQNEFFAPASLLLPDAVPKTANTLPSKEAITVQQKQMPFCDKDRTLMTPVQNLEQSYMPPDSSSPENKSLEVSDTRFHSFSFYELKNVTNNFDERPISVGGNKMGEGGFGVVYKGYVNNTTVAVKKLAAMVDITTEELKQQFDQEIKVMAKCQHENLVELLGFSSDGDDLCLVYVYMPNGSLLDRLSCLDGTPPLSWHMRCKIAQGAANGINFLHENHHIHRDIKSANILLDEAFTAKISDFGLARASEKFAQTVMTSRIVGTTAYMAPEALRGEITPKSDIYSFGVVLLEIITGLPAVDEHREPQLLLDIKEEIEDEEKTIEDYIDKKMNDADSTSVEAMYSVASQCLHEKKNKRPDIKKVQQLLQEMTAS

| Structure (SMILES) | DC50 [nM] |
| --- | --- |
| COc1cc2nc([C@H]3CC[C@H](CN4CCC(c5ccn6c(N7CCC(=O)NC7=O)cnc6c5C)CC4)CC3)sc2cc1NC(=O)c1cccc(C(F)(F)F)n1 | < 10 |
| O=C1CCN(c2cncc3c(C4CCN(C[C@H]5CC[C@H](n6cc7cc(NC(=O)c8cccc(C(F)(F)F)n8)ncc7n6)CC5)CC4)cccc23)C(=O)N1 | 10 to 100 |

Source: patent US20250375526A1, “IRAK DEGRADERS AND USES THEREOF” (Kymera Therapeutics, Inc., priority 2020, published 2025)
